Laboratory results reported in PubChem BioAssay AID624267 (The Scripps Research Institute Molecular Screening Center, 2012).
Only a part is listed here, and it is no random draw. Active and inactive are the calls of the source. No stated cut-off is given here; in the data, active means inhibition above about 21%; inactive means the rest.

Sequences of proteins named here, by UniProt entry; tags and fusion partners are left off.
UniProt O43353, whole entry: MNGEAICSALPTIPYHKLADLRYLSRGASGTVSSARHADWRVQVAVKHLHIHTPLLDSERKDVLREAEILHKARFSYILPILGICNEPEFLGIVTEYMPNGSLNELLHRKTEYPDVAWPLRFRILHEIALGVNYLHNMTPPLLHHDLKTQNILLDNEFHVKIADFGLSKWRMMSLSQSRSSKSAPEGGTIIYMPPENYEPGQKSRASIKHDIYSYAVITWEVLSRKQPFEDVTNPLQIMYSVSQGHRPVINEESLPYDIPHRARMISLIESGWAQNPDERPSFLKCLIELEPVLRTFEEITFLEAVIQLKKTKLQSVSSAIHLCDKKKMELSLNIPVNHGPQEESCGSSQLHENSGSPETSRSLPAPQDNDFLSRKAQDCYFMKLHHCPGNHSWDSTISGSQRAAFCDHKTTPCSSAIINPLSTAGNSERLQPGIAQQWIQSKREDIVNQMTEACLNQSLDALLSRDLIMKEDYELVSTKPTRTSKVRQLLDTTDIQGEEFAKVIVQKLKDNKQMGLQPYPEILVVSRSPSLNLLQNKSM

The molecules below were run against Receptor-interacting serine/threonine-protein kinase 2 (Homo sapiens) (UniProt O43353) (assay: inhibitors of RIPK2 association with NOD2 – fluorescence, CHO cells, BLA complementation, primary screen (AID 624267;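 further: 0% = vehicle only and 100% = reference blocker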)). Conditions: CHO BLA complementation NOD2-RIPK2, CCF4 ratio; at 4.98 µM; active compounds read high.
For CP(=O)(Nc1ccccn1)Oc1ccc(Cl)cc1 (configuration not stated), the inhibition was inactive: -8.72%.
In the case of CCOP(C)(=S)SCC(=O)NC(C)C(=O)O (configuration not stated), the inhibition is reported as inactive: 4.16%.
For O=[N+]([O-])c1cc([N+](=O)[O-])c(O)c([N+](=O)[O-])c1.c1ccc(Oc2ccncc2)cc1, the inhibition was inactive: -11.6%.
CCOC(=O)c1ccc(NP(C)(=O)Oc2ccc(OC)cc2)cc1 (configuration not stated) was tested, and the inhibition was inactive: -1.53%.
For Cc1cc(C)cc(OP(C)(=O)Nc2ccc(SC(F)(F)F)cc2)c1 (configuration not stated), the inhibition was inactive: 1.27%.
CP(=O)(NC(=O)Nc1ccccc1)Oc1ccccc1 (configuration not stated) was tested, and the inhibition was inactive: -5.88%.
CCc1ccc(OP(C)(=O)N2CCN(c3ccc([N+](=O)[O-])cc3)CC2)cc1 (configuration not stated) was tested, and the inhibition was inactive: 15.5%.
In the case of CP(=O)(Oc1ccccc1)OC(c1ccccc1)C(F)(F)F (configuration not stated), the inhibition is reported as inactive: -11.8%.
With CP(=O)(Nc1ccc(SC(F)(F)F)cc1)Oc1ccc(Cl)cc1 (configuration not stated) the inhibition was inactive: 10.5%.
In the case of Cc1ccc(Nc2c([N+](=O)[O-])cc([N+](=O)[O-])cc2[N+](=O)[O-])cc1, the inhibition is reported as inactive: -0.02%.
For Cc1cccc(C)c1OP(C)(=O)Nc1ccc(SC(F)(F)F)cc1 (configuration not stated), the inhibition was inactive: -6.55%.
For COc1ccccc1OP(C)(=O)Nc1ccccc1 (configuration not stated), the inhibition was inactive: -14.7%.
CP(=O)(Nc1ccccc1Br)Oc1ccccc1 (configuration not stated) was tested, and the inhibition was inactive: 5.37%.
In the case of CP(=S)(Nn1cnnc1)Oc1ccccc1 (configuration not stated), the inhibition is reported as inactive: 2.29%.
In the case of COc1ccc(OP(C)(=O)Nc2cccc(F)c2)cc1 (configuration not stated), the inhibition is reported as inactive: -0.31%.
COc1ccccc1OP(C)(=O)Nc1cc(Cl)ccc1C (configuration not stated) was tested, and the inhibition was inactive: -5.41%.
In the case of Cc1cc(C)cc(OP(C)(N)=O)c1 (configuration not stated), the inhibition is reported as inactive: 0.38%.
In the case of CCOC(=O)c1ccc(NP(C)(=O)Oc2ccccc2)cc1 (configuration not stated), the inhibition is reported as inactive: -14.5%.
In the case of Cc1ccc(NP(C)(=O)Oc2ccccc2)c(C)c1 (configuration not stated), the inhibition is reported as inactive: -15%.
With COc1ccccc1OP(C)(=O)Nc1ccc(C)cc1 (configuration not stated) the inhibition was inactive: 2.86%.
In the case of Cc1cccc(C)c1OP(C)(N)=O (configuration not stated), the inhibition is reported as inactive: 6.66%.
CC(C)(C)c1ccc(OP(C)(=O)Nc2ccc(SC(F)(F)F)cc2)cc1 (configuration not stated) was tested, and the inhibition was inactive: -5.82%.
O=[N+]([O-])c1ccc2c(c1)C=Nc1ccccc1O2 was tested, and the inhibition was inactive: -2.55%.
In the case of O=[N+]([O-])c1cc([N+](=O)[O-])c(Nc2cccnc2)c([N+](=O)[O-])c1, the inhibition is reported as inactive: 3.13%.
For COc1ccccc1-c1ccccn1.O=[N+]([O-])c1cc([N+](=O)[O-])c(O)c([N+](=O)[O-])c1, the inhibition was inactive: 3.32%.
In the case of CCN(CC)CCCOC(=O)C(O)(c1ccccc1)c1ccccc1, the inhibition is reported as inactive: -0.9%.
Cc1cc(C)cc(OP(C)(=O)Nc2ccccn2)c1 (configuration not stated) was tested, and the inhibition was inactive: -4.41%.
CP(=O)(Nc1cccc(Br)c1)Oc1ccccc1 (configuration not stated) was tested, and the inhibition was inactive: -10.6%.
For Cc1ccc(C)c(NP(C)(=O)Oc2ccccc2)c1 (configuration not stated), the inhibition was inactive: -6.3%.
In the case of Cc1cc(C)cc(OP(C)(=O)Nc2ccc(C)cc2C)c1 (configuration not stated), the inhibition is reported as inactive: -1.63%.
In the case of CCOC(=O)c1ccc(NP(C)(=O)Oc2cc(C)cc(C)c2)cc1 (configuration not stated), the inhibition is reported as inactive: -4.05%.
In the case of COc1ccccc1OP(C)(=O)Nc1cccc(Br)c1 (configuration not stated), the inhibition is reported as inactive: 0.47%.
With CC1=NCCc2c1[nH]c1ccccc21.O=[N+]([O-])c1cc([N+](=O)[O-])c(O)c([N+](=O)[O-])c1 the inhibition was inactive: -1.12%.
For O=C(O)c1cccc(Nc2c([N+](=O)[O-])cc([N+](=O)[O-])cc2[N+](=O)[O-])c1, the inhibition was inactive: -4.64%.
CCCOc1ccc(NP(C)(=O)Oc2ccc(Cl)cc2)cc1 (configuration not stated) was tested, and the inhibition was inactive: 3.03%.
CP(=O)(Nc1ccc(SC(F)(F)F)cc1)Oc1ccccc1 (configuration not stated) was tested, and the inhibition was inactive: -0.85%.
COc1ccc(-c2ccccn2)cc1.O=[N+]([O-])c1cc([N+](=O)[O-])c(O)c([N+](=O)[O-])c1 was tested, and the inhibition was inactive: -14.1%.
With CN1CCCCC1COC(=O)C1(O)c2ccccc2CCc2ccccc21 (configuration not stated) the inhibition was inactive: -4.79%.
For COc1ccccc1OP(C)(=O)Nc1c(C)cccc1C (configuration not stated), the inhibition was inactive: 10.7%.
In the case of CCOC(=O)C(CC)C1=NC(C)(C)Cc2ccccc21.O=[N+]([O-])c1cc([N+](=O)[O-])c(O)c([N+](=O)[O-])c1 (configuration not stated), the inhibition is reported as inactive: 5.79%.
For CC1=C2N=C(C=C3N=C(C(C)=C4[N-][C@@](C)([C@@H]5N=C1[C@](C)(CCC(=O)NC[C@@H](C)OP(=O)([O-])O[C@H]1[C@@H](O)[C@@H](n6cnc7cc(C)c(C)cc76)O[C@@H]1CO)[C@H]5CC(N)=O)[C@@](C)(CC(N)=O)[C@@H]4CCC(N)=O)[C@@](C)(CC(N)=O)[C@@H]3CCC(N)=O)C(C)(C)[C@@H]2CCC(N)=O.[C-]#N.[Co+3], the inhibition was inactive: -0.5%.
For O=[N+]([O-])c1cc([N+](=O)[O-])c(Nc2nnnn2CCO)c([N+](=O)[O-])c1, the inhibition was inactive: -14%.
For Cc1nc2ccc3ccccc3c2s1.O=[N+]([O-])c1cc([N+](=O)[O-])c(O)c([N+](=O)[O-])c1, the inhibition was inactive: -1.37%.
In the case of O=[N+]([O-])c1cc([N+](=O)[O-])c(-c2cnn(-c3ccccc3)c2)c([N+](=O)[O-])c1, the inhibition is reported as inactive: -3.61%.
CN(Cc1cccnc1)C(=O)COc1ccc(Cl)c(Cl)c1.O=[N+]([O-])c1cc([N+](=O)[O-])c(O)c([N+](=O)[O-])c1 was tested, and the inhibition was inactive: -16%.
O=[N+]([O-])c1cc([N+](=O)[O-])c(-n2nnc3ccccc32)c([N+](=O)[O-])c1 was tested, and the inhibition was inactive: 1.3%.
With O=[N+]([O-])c1cc([N+](=O)[O-])c(C(F)(F)F)c([N+](=O)[O-])c1O the inhibition was inactive: -23.8%.
In the case of Cc1ccccc1NP(C)(=O)Nc1ccccc1C, the inhibition is reported as inactive: -2.96%.
In the case of CP(=O)(Nc1ccc2c(c1)OCCO2)Oc1ccccc1 (configuration not stated), the inhibition is reported as inactive: -10.6%.
In the case of CCOP(C)(=S)SCC(=O)NC(C)(CC)C(=O)O (configuration not stated), the inhibition is reported as inactive: -7.97%.
CP(=O)(Nc1ccc(SC(F)(F)F)cc1)Oc1ccc(F)cc1 (configuration not stated) was tested, and the inhibition was inactive: 0.86%.
Cc1c(C(c2ccc3c(c2)OCO3)c2c(C)n(C)n(-c3ccccc3)c2=O)c(=O)n(-c2ccccc2)n1C.O=[N+]([O-])c1cc([N+](=O)[O-])c(O)c([N+](=O)[O-])c1 was tested, and the inhibition was inactive: -5.05%.
